For orientation: IC50 means the point on the concentration scale where inhibition reaches its midpoint.

By UniProt entry, the sequences of proteins in these tests, tags left out.
UniProt O00519, whole entry, looked up: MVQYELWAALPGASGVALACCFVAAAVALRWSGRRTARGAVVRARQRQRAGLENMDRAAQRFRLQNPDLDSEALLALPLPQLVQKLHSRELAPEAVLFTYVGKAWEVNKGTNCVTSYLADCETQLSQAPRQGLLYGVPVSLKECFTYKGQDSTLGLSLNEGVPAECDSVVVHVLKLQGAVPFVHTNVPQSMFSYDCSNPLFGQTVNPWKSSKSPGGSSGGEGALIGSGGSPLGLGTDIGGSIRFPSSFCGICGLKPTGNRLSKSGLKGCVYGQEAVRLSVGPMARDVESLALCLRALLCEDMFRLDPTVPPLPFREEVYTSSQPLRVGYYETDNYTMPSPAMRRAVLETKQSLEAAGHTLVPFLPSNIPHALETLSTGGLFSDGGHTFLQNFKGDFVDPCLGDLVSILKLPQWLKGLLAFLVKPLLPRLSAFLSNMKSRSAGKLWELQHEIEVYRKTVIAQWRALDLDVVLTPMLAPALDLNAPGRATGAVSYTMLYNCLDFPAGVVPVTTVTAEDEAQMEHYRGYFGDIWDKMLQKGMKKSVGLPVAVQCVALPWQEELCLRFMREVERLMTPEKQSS
UniProt P97612, whole entry, looked up: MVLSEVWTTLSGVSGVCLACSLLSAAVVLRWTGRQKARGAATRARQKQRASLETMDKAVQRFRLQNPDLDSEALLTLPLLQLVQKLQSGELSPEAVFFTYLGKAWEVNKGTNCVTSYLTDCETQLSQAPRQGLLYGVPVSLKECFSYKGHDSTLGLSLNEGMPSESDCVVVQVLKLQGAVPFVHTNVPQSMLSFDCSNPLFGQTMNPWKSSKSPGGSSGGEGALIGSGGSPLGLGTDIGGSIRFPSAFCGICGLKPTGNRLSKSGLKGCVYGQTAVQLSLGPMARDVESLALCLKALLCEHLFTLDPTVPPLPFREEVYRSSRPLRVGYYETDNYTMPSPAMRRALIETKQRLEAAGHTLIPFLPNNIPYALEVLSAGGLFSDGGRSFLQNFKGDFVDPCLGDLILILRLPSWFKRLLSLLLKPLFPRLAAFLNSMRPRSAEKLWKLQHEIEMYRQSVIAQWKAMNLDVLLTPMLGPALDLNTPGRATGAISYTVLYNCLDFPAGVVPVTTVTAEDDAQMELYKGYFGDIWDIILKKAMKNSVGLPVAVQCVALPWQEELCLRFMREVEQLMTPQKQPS
UniProt Q99685, whole entry, looked up: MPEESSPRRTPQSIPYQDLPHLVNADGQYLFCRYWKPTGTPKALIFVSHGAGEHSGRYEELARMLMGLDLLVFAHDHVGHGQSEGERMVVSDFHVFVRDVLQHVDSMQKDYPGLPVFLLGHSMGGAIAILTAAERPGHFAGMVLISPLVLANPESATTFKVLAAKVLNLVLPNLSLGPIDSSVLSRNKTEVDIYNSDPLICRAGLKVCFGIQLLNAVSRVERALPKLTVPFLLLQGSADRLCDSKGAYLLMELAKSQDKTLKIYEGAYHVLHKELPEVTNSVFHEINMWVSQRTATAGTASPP

A value given as a limit tells only on which side of the number the result lay.

The source of these data is ChEMBL document CHEMBL4359929, “Piperidine and piperazine inhibitors of fatty acid amide hydrolase targeting excitotoxic pathology” (Bioorg Med Chem, 2019).

The target of data set [1] is Fatty-acid amide hydrolase 1 (Homo sapiens, UniProt O00519). The data set can be described thus: Inhibition of human recombinant MBP-tagged FAAH expressed in Escherichia coli cells using AAMCA as substrate incubated for 15 mins followed by substrate addition and measured after every 20 mins for 4 hrs by fluorescence based assay.
For data set [2], the target named is Fatty-acid amide hydrolase 1 (Rattus norvegicus, UniProt P97612). Description: Inhibition of rat recombinant His/GST-tagged FAAH expressed in Escherichia coli cells using AAMCA as substrate incubated for 15 mins followed by substrate addition and measured after every 20 mins for 4 hrs by fluorescence based assay.
In a further data set the target is Monoglyceride lipase (Homo sapiens, UniProt Q99685). Description: Inhibition of human recombinant His-tagged MGL expressed in Escherichia coli BL21 DE3 cells using AHMMCE as substrate preincubated with enzyme for 15 mins followed by substrate addition and measured after every 15 mins for 3 hrs by fluorescence based assay.
The nature of data set [3]: Stability in human liver microsomes assessed as half life. In kind it is ADME, Microsome. The method in brief: (§1)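 Stability assessed as half-life in human, rat and mouse plasma and gastric fluid, and in human, rat and mouse liver microsomal preparations.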
A general note: Liver microsomes are vesicles of endoplasmic reticulum, rich in cytochrome P450 enzymes.

Data set [4] in a line: Stability in rat liver microsomes assessed as half life. Type of data set: ADME, Microsome. In a few lines:
as §1

The nature of data set [5]: Stability in mouse liver microsomes assessed as half life. In kind it is ADME, Microsome. In a few lines: as §1
The nature of data set [6]: Stability in human plasma assessed as half life. In kind it is ADME, cell-free. The method in brief: as §1
Data set [7] can be described thus: Stability in rat plasma assessed as half life. In kind it is ADME, cell-free. The method in brief:
as §1

A short description of data set [8]: Stability in mouse plasma assessed as half life. In kind it is ADME, cell-free. In a few lines: as §1
Data set [9] in a line: Stability in human gastric fluid assessed as half life. The settings on record: simulated gi fluid, Gastric juice. Type of data set: ADME, tissue-based. The method in brief: as §1
Data set [10] in a line: Stability in rat gastric fluid assessed as half life. Type of data set: ADME, tissue-based. The settings on record: in vivo, Gastric juice. The method in brief:
as §1

The nature of data set [11]: Stability in mouse gastric fluid assessed as half life. Type of data set: ADME, tissue-based. As to conditions: in vivo, Gastric juice. In a few lines: as §1

Take `O=C(Oc1cncc(N2CCS(=O)(=O)CC2)c1)N1CCC(c2ccc(F)cc2)CC1`: the half-maximal inhibitory concentration (IC50) was 4.9 nM in data set [1], 7.1 nM in [2] and > 1000 nM at Monoglyceride lipase. In addition, the t1/2 is 15 to 25 min in data set [3]; 15 to 25 min in [4]; 15 to 25 min in [5]; > 60 min in data set [6]; > 60 min in data set [7]; > 60 min in data set [8]. The t1/2 in [9], in data set [10] and in data set [11] was > 60 min in each case.
